From patent publication US7816400B2 (The University of Hong Kong, priority 2007, dated 2010)
“Also recorded” adds a separate entry of the source.

System: anesthetized dogs
Experiment: In vivo electrophysiology (atrial ERP, QTc) in anesthetized dogs
Set-up: species or system dog
Settings: for atrial ERP, in words: BCL 300, 250, 200 ms, 4-hour observation; for rate dependence of ERP prolongation, in words: three hours post administration
[1] = 5 mg/kg intraduodenal, BCL 200 ms, 1 h post-treatment
[2] = 5 mg/kg intraduodenal, BCL 300 ms, pre-treatment (baseline)

| SMILES | QTc interval in anesthetized dogs, in words (5 mg/kg intraduodenal) | atrial ERP, in words (5 mg/kg intraduodenal) | rate dependence of ERP prolongation, in words (5 mg/kg intraduodenal) | QTc interval in anesthetized dogs, in words (5 mg/kg intraduodenal, listed as acacetin) | S2-induced sustained AF during right atrial ERP measurement at 200 ms BCL, in words (one animal, 2 h after 5 mg/kg) | left atrial ERP (ms), BCL 200 ms [1] [ms] | right atrial ERP (ms), BCL 200 ms [1] [ms] | right atrial ERP (ms), BCL 200 ms (5 mg/kg intraduodenal, BCL 200 ms, 2 h post-treatment) [ms] | left atrial ERP (ms), BCL 300 [2] [ms] | right atrial ERP (ms), BCL 300 [2] [ms] | QTc interval in anesthetized dogs, in words (5 mg/kg intraduodenal, listed as sotalol) |
| --- | --- | --- | --- | --- | --- | --- | --- | --- | --- | --- | --- |
| COc1ccc(-c2cc(=O)c3c(O)cc(O)cc3o2)cc1 [Acacetin, 5,7-dihydroxy-4′-methoxyflavone] | without prolonging | significantly prolonged | no such reverse rate-dependent effect | did not prolong | but not after two hours of acacetin administration; also recorded: no longer triggered | – | – | – | – | – | – |
| CC(C)NCC(O)c1ccc(NS(C)(=O)=O)cc1 (centres unmarked) [Sotalol, sotalol] | increased; also recorded: prolonged | significantly prolonged | reverse rate-dependent prolongation; also recorded: ‘reverse-rate dependent’ prolongation | – | – | 99.4 ± 3.2 | 99.4 ± 3.2 | 105.1 ± 5.1 | 99.4 ± 3.7 | 100.3 ± 9.4 | prolonged |
